# Data from PubChem BioAssay AID594 (National Center for Advancing Translational Sciences (NCATS), 2007).
# Only a part is listed here, and it is no random draw. Active and inactive are the calls of the source. Cut-off read from the data, not from the text of the source: active = max dye-equivalent concentration above about 11 nM; inconclusive = between about 1.1 nM and that limit; inactive = weaker than that.
# Assay: qHTS Assay for Spectroscopic Profiling in Rhodamine Spectral Region
# Settings: Rhodamine-region fluorescence, 547/598 nm, Tris buffer
# From the text: NIH Molecular Libraries Screening Centers Network [MLSCN] NIH Chemical Genomics Center [NCGC] […] Occasionally, the artifactual effect may originate from the compound#s own spectral or other biophysical properties which generally tend to track its assay concentration. Pre-screening/profiling the library with respect to the compounds# spectral properties should help one exclude false positives early on. While the most informative fluorescent profiling data set is obtained by performing a full excitation and emission scan of each well by using a monochromator-based plate reader, such an approach is practical only on a very limited scale as scanning each well requires long time. An alternative approach, applied here, is to perform plate reader scans using selected excitation and emission wavelength pairs to generate a multidimensional relational database that correlates compound concentration and the respective relative fluorescence intensity at a given wavelength set. A standard curve of rhodamine present on each plate as six-point concentration series, was used to compute a normalized fluorescence response, termed dye-equivalent concentration, for each compound at each concentration.
# NCGC Assay Protocol Summary: Buffer: 100 mM Tris buffer, pH 8.0 Dye standard plate: The wells in columns 1 through 4 of a Kalypsys polypropylene 1536-well compound plate were filled with standard solutions of fluorophore corresponding to the spectral region of interest. Solutions of rhodamine were placed in the following wells: E1, F1: 3 mM, E2, F2: 300 uM, E3, F3: 30 uM, E4, F4: zero (DMSO), G1, H1: 3 uM, G2, H2: […], G3, H3: 300 nM, G4, H4: zero (DMSO). Assay Steps: Six uL of buffer were dispensed to 1536-well Greiner black plates. Compounds and dye standards (23 nL) were transferred via Kalypsys PinTool. The plates were incubated for 15 min at room temperature, and then read on ViewLux (Perkin-Elmer) High-throughput CCD imager using 547 nm and 598 nm excitation and emission filter set. Keywords: NIH Roadmap, MLSCN, MLI, MLSMR, qHTS, NCGC, Rhodamine , Fluorescent Profiling.
row,Compound,outcome
1,N#CC1(Nc2ccccc2)CCN(CCc2ccccc2)CC1,inactive
2,NC1CCCCC1.NP(=O)(O)N(CCCl)CCCl,inactive
3,O=C(OC1CN2CCC1CC2)C1c2ccccc2Oc2ccccc21 (configuration not stated),inactive
4,CCOc1ncccc1C(=O)NCC1(N2CCOCC2)CCCCC1,inactive
5,O=C(O)C1(Nc2ccccc2)CCN(Cc2ccccc2)CC1,inactive
6,CCC(CO)(C(=O)OC1CN2CCC1CC2)c1ccccc1 (configuration not stated),inactive
7,N/C(=N\O)c1c(N)no[n+]1[O-],inactive
